Measured values as given in article PMC1805503 (Beilstein Journal of Organic Chemistry, 2007).

The chains behind the UniProt entries cited, without tags or fusion partners. Where a name states a change or a piece, a line headed by the entry shows the natural chain unless it says otherwise.
UniProt P41145: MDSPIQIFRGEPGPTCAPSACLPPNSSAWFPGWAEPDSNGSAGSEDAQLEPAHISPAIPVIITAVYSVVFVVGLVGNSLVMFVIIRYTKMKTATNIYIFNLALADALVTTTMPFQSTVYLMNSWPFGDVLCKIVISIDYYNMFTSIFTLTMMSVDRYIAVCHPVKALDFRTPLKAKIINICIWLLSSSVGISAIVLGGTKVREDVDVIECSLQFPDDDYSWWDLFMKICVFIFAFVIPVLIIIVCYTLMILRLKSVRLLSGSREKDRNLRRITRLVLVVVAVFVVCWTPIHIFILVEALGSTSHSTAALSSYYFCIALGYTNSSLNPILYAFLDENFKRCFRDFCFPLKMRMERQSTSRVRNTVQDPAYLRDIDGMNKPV

Target: human KOR (Homo sapiens, UniProt P41145)
Assay: Enhancement of [35S]GTPγS binding to CHO-hKOR membranes
Assay type: biochemical
Details: relative to that of U50,488H control

With `COC(=O)[C@@H]1C[C@H](OC(C)=O)C(=O)[C@H]2[C@@]1(C)CC[C@H]1C(=O)O[C@H](c3ccoc3)C[C@]21C` the “Emax ± SEM” value was 98 ± 3%.
